Test results as given in US20190015518A1, “DRUG DELIVERY COMPOSITIONS AND METHODS” (priority 2016, published 2019).

What was measured:
[1] = tested on: MDA-1986 head and neck tumors; test: Anticancer efficacy, orthotopic xenograft model of human HNSCC; type: in vivo, mouse; details: 20 mg/kg s.c., three weekly injections
Experimental: The MDA-1986 cells were prepared in PBS at a concentration of 2×10^7 cells/mL. Female NU/NU mice were anesthetized under 2% isoflurane in O2, and 50 μL of cell solution was injected into the oral sub-mucosa of the mice using a 27-ga needle. All procedures in the animal study were approved by the Institutional Animal Care and Use Committee of the University of Kansas. Tumor growth was monitored twice weekly by measurement with a digital caliper, and the tumor volume was calculated as 0.52×(width)^2×(length). […] The drugs were given weekly for 3 consecutive weeks.

[2] = Clinical chemistry of a healthy dog given 1.5 mg/kg on day 1 and 2.0 mg/kg on day 70, sub-mucosa; type: in vivo
Experimental: (§1) Before each dose, the dog was examined by clinical chemistry, hematology, and urinalysis. Additional examinations of clinical chemistry and hematology were performed on days 7, 14, and 42 after the first dose. Additional tests of urinalysis were performed on days 7 and 14 after the first dose. The potential drug-induced toxicities were monitored for 56 days after the second dose. Specifically, clinical chemistry and urinalysis were performed on days 7, 14, 21, and 56, and hematology was performed on days 7, 14, and 56 after the second dose to evaluate the tolerability and toxicity of the formulation.
Clinical chemistry examinations were performed at pre- and post-dose for both injections. The injections were given via the sub-mucosa in the mouth.

[3] = Pharmacokinetics in a healthy dog, oral sub-mucosa injection (SAAM II model); type: in vivo; details: 2nd dose 2.0 mg/kg
Experimental: Pharmacokinetics of HA-Lys-Pt were determined in a healthy dog by Xenometrics LLC (Stillwell, Kans.). […] After each injection, 2-mL serum samples were collected at 0, 0.25, 1, 2, 6, 24, 48, 96, and 168 hours. Cumulative urine samples were collected at 0-6, 6-24, 24-48, 48-72, 72-96, 96-120, 120-144, and 144-168 hours. The samples were frozen at −80° C. until ICP-MS analysis. Prior to analysis, serum and urine samples were diluted 250 and 500-fold using 1% HNO3, respectively. The platinum calibration curve contained 4 replicates of 6 concentrations (0, 1, 10, 20, 40, and 50 ppb). The internal standard was bismuth at 50 ppb.
The pharmacokinetics of the HA-Lys-Pt was measured using the serum and urine samples. The data was modeled using SAAM II software with a four compartmental model.
As indicated by the model, q1, q2, q3, and q4 represent the central blood compartment, the body/tissue compartment, the injection site, and the urine compartment, respectively. The syringe represents the dose that was given to the injection site compartment. The two red circles indicate the two sampling sources, the serum from the q1 (s1), and the urine from the q4 (s2). […] The calculated PK parameters including AUC, clearance, volume of distribution at steady state (Vss), elimination half-lives (te), and transfer rate constants, are listed in Table 3.

[4] = Pharmacokinetics in three tumor-bearing dogs (three-compartmental model); type: in vivo; details: Dog 3 (6.5 kg), 10 mg/m2
Experimental: An open label, multiple dose/dosage phase I/II trial of 75HA-Lys-Pt was conducted at the University of Missouri Veterinary Medical Teaching Hospital (MU-VMTH). The clinical trial protocol was approved by the University of Missouri ACUC. Dogs of any age, sex, or breed presented to the MU-VMTH oncology service with the a histological diagnosis of anal sac carcinoma, oral squamous cell carcinoma, oral melanoma, nasal carcinoma, or digital squamous cell carcinoma with a performance score of 0 or 1 (0: normal activity; 1: restricted activity; 2: compromised activity; 3: disabled; 4: dead) and without comorbid conditions that would limit life expectancy to less than nine weeks were offered enrollment in the trial.
Following complete staging, client consent was obtained to enroll each dog in the study. Once enrolled in the study, longest tumor diameters of all target lesions were recorded. An indwelling jugular catheter was placed to facilitate collection of blood samples. Dogs received 10 to 30 mg/m^2 intra-tumoral injections through 1 to 3 pre-placed 22-ga spinal needles once every three weeks for up to four planned doses. […]
Serum samples of 3 dogs were diluted 20-fold in 1% HNO3, and vortexed prior to inductively coupled plasma mass spectrometry (ICP-MS) analysis. The platinum concentration of serum was determined using an Agilent 7500i ICP-MS. […]

[5] = Rehydration time of lyophilized HA-Lys-Pt; type: physicochemical
Experimental: 33HA-Lys-Pt (MW of HA: 33 kDa) from batch 33_01015 was used to evaluate the impact of trehalose as an excipient and lyoprotectant. […] The solution was freeze-dried using the following program. Samples were frozen in a −80° C. freezer for 4 hours. The vials were transferred to a freeze dryer and kept at −40° C. for 1.5 hours. The condenser point was set at −70° C. The vacuum setpoint was 100 mTorr. The parameters for primary drying were 30 hours at −35° C. and 10 mTorr. The parameters for secondary drying were 5 hours at 2° C. and 10 mTorr, followed by another 5 hours at 8° C. and 10 mTorr. Once the drying was complete, vials containing lyophilized 33HA-Lys-Pt samples were stored at −20° C. in the dark until rehydration test within 24 hours. During rehydration, 500-μL of water was added to the vial and the sample was gently shaken. The small molecular weight platinum species such as mono-aquated and di-aquated platinum were separated from the reconstituted 33HA-Lys-Pt using a Centricon centrifugal filter unit (10,000 MWCO, 4000 rpm for 10 min at 4° C.) and analyzed by an HPLC assay. The mobile phase was sodium phosphate solution (10-mM, pH 3.0) at a flow rate of 0.25 mL/min on an Alltech® 250 mm×4.6 mm M/M RP8/cation column thermostated at 25° C.
75HA-Lys-Pt (MW of HA: 75 kDa) from batch 75_1205 was used to evaluate the impact of trehalose as an excipient and lyoprotectant. […] The solution was freeze-dried using the following program. Samples were frozen in a −80° C. freezer for 4 hours. The vials were transferred to a freeze dryer and kept at −40° C. for 1.5 hours. The condenser point was set at −70° C. The vacuum setpoint was 100 mTorr. The parameters for primary drying were 30 hours at −35° C. and 10 mTorr. The parameters for secondary drying were 5 hours at 2° C. and 10 mTorr, followed by another 5 hours at 8° C. and 10 mTorr. Once the drying was complete, vials containing lyophilized 75HA-Lys-Pt samples were stored at −20° C. in the dark until rehydration test within 24 hours. During rehydration, 500-μL of water was added to the vial and the sample was gently shaken.
One milliliter of samples were used for all tests. The trehalose percent weights varied from 8-20% wt. The pHs included 4.5, 5, 6, and 7. The solution was freeze-dried using the aforementioned freeze-drying program. Once the drying was complete, vials containing lyophilized 75HA-Lys-Pt samples were stored at −20° C. in the dark until rehydration test within 24 hours. During rehydration, 1-mL of water was added to the vial and the sample was gently shaken. Diaquated platinum species were separated using the aforementioned Centricon units and analyzed using the aforementioned HPLC method.
Other sample freezing methods were also tested. […]

[6] = Hematology of a healthy dog given 1.5 mg/kg on day 1 and 2.0 mg/kg on day 70, sub-mucosa; type: in vivo
Experimental: as §1
Hematology examinations were performed at pre- and post-dose for both injections. The injections were given via the sub-mucosa in the mouth.

For “HA-cis-[Pt(NH3)2(N^α-Acetyl-L-Lysine)] [75HA-Lys-Pt]”, the “survival rate relative to the control and cisplatin treated groups” value [1] was “significantly extended”, the “ALT, fold of the pre-dose value” ([2]; 2 mg/kg, 14-days post-dose) was 2.8 fold and the “AST, fold of the pre-dose value” ([2]; 2 mg/kg, 14-days post-dose) was 2.7 fold. The “A/G Ratio” value ([2]; 2 mg/kg, 7 days after) was 0.86, the Cl ([2]; 2 mg/kg, 7 days after) was 115 mmol/L and the K ([2]; 2 mg/kg, 7 days after) was 3.8 mmol/L. The Na ([2]; 2 mg/kg, 7 days after) was 148 mmol/L, the “A/G Ratio” value ([2]; 2 mg/kg, 14 days after) was 0.77 and the Aspartate aminotransferase ([2]; 2 mg/kg, 14 days after) was 119 U/L. The Cl ([2]; 2 mg/kg, 14 days after) was 122 mmol/L, the Globulin ([2]; 2 mg/kg, 14 days after) was 3.1 g/dL and the K ([2]; 2 mg/kg, 14 days after) was 4.5 mmol/L. For the same substance, the Na ([2]; 2 mg/kg, 14 days after) was 152 mmol/L, the “A/G Ratio” value ([2]; 2 mg/kg, 21 days after) was 0.87 and the Cl ([2]; 2 mg/kg, 21 days after) was 113 mmol/L. It also gave a Creatine kinase ([2]; 2 mg/kg, 21 days after) of 113 U/L, a Globulin ([2]; 2 mg/kg, 21 days after) of 3.1 g/dL and a K ([2]; 2 mg/kg, 21 days after) of 4.4 mmol/L. For the same substance, the Na ([2]; 2 mg/kg, 21 days after) was 147 mmol/L, the “A/G Ratio” value ([2]; 2 mg/kg, 56 days after) was 0.91 and the Cl ([2]; 2 mg/kg, 56 days after) was 119 mmol/L. The K ([2]; 2 mg/kg, 56 days after) was 4.0 mmol/L, the Na ([2]; 2 mg/kg, 56 days after) was 150 mmol/L and the “A/G Ratio” value ([2]; […], 7 days after) was 0.92. For the same substance, the Cl ([2]; […], 7 days after) was 112 mmol/L, the K ([2]; […], 7 days after) was 4.0 mmol/L and the Na ([2]; […], 7 days after) was 148 mmol/L. The “A/G Ratio” value ([2]; […], 14 days) was 0.86, the Cl ([2]; […], 14 days) was 119 mmol/L and the K ([2]; […], 14 days) was 5.0 mmol/L. The Na ([2]; […], 14 days) was 149 mmol/L, the “A/G Ratio” value ([2]; […], 42 days) was 1.2 and the “te (β)” value [3] was 3.1 h. The te [4] was 11.1 h, the “Rehydration Time” value ([5]; 2.32 mg/mL, pH 5, trehalose 15% wt) was 24 h and the “Rehydration Time” value ([5]; 2.32 mg/mL, pH 5, trehalose 20% wt) was 24 h. The “Rehydration Time” value ([5]; batch 75_0706, 2.13 mg/mL, pH 5, trehalose 15% wt, Liquid nitrogen) was greater than 24 h, the “Rehydration Time” value ([5]; batch 75_0706, 2.13 mg/mL, pH 5, trehalose 20% wt, Liquid nitrogen) was greater than 24 h and the “Differential white blood cell count, % MONO” value ([6]; 2 mg/kg, 56 days after) was 4.5%. The “Differential white blood cell count, % MONO” value ([6]; […], 7 days after) was 3.8%, the “Differential white blood cell count, % MONO” value ([6]; […], 14 days) was 3.8% and the Reticulocyte count ([6]; […], 42 days) was 0.91%.
